Values joined by “and” are separate entries in the source; they are usually repeats but may differ in a detail not shown here. Identical values can stand only once.
Test: Photostability test in glass vials not shielded from light: gelation, molecular weight, percent conjugation of MTX (Example 4(2))
Format: physicochemical
Method: Various photostabilizers (methyl p-hydroxybenzoate (methyl paraben), salicylic acid Na, thiosulfuric acid Na, thioglycolic acid Na, N-acetyltryptophan, and tryptophan) were each dissolved in a preparation buffer (0.9% NaCl containing 2 mM phosphate buffer, pH 7.4) to give a concentration of 1 or 10 mg/ml and thereafter filtered aseptically by passage through a 0.2-μm filter (Millex GV). A powder of the HA-MTX conjugate prepared in accordance with Production 1 was metered aseptically and dissolved in the filtered, photostabilizer-containing preparation buffer to give a concentration of 10 mg/mL; the thus prepared solutions were used as test samples. To prepare a control solution, the HA-MTX conjugate was dissolved in a photostabilizer-free preparation buffer at a concentration of 10 mg/mL. […]
The irradiation was so performed as to give an illuminance of 4000 Lux at 25° C. from a fluorescent lamp for use in a photostability test (TOSHIBA FL20S•D-EDL-D65) by means of a photostability tester (ETAC LABONIC LA110). After the lapse of specified periods (0 h, 25 h, 50 h, 100 h, 150 h, and 300 h) of irradiation, samples were taken and not only checked for gelation but also measured for the molecular weight of the HA-MTX conjugate and the percent conjugation of MTX (in the HA-MTX conjugate). […]

## O=C([O-])c1ccccc1O.[Na+] [Na salicylate, sodium salicylate]
  Molecular weight (×10^4), irradiation time 50 h: 182 ×10^4 and 122 ×10^4

From patent US9072791B2, “Photostabilized pharmaceutical compositions” (DENKI KAGAKU KOGYO KABUSHIKI KAISHA, priority 2008, dated 2015)
